Values of other authors as cited in patent publication US10065990B2, “Cyclic peptide compound, and preparation method, pharmaceutical composition and use thereof” (HANGZHOU GUANYU BIO-MEDICAL CO., LTD, priority 2013, dated 2018).

Protein sequences, listed by entry. Tags and fused reporters are not part of them.
UniProt Q13547, whole entry: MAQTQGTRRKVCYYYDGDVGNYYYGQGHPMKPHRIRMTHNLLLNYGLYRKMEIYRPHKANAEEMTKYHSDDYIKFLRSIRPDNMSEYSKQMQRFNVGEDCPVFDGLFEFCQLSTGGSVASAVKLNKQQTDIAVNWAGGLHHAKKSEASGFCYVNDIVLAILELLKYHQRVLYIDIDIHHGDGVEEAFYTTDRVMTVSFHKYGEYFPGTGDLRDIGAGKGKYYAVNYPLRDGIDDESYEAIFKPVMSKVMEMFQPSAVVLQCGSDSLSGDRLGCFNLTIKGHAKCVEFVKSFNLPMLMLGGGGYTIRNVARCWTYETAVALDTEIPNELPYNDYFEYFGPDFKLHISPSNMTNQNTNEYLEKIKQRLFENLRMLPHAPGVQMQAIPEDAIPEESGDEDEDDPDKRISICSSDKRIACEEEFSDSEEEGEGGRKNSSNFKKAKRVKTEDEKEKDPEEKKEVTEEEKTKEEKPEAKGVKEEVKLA

Target: HDAC1 (Homo sapiens, UniProt Q13547)
Conditions: read-out: IC50 HDAC1, b (compounds of CN102391359A); Table 2, column b, comparison compounds of CN102391359A; cited from earlier work

## C/C=C1\NC(=O)c2csc(n2)CNC(=O)C[C@@H](/C=C/CCSC(=O)CCCCCCC)OC(=O)[C@H](CSCC)NC1=O
  IC50: < 0.1 µM
